Laboratory results from US20170096479A1 (published 2017).
Numbering of substitutions follows the chain as printed. Numbers in names are those of the source. One block for each molecule: values may come before it.

Protein sequences, listed by entry. Tags and fused reporters are not part of them. Chains listed by the source or under a name are the forms on record and can include a tag or linker.
human VEGF165, UniProt P15692, other isoform, or with tags, fused parts or gaps limits assumed: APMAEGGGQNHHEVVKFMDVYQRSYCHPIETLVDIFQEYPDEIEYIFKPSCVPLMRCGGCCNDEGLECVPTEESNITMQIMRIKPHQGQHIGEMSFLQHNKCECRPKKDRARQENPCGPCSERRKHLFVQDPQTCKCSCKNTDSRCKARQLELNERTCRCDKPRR

Assays:
[1] = target: human VEGF (hVEGF) (human) (UniProt P15692); experiment: SPR BIACORE T200, single cycle
human VEGF (hVEGF) = human VEGF (hVEGF) (human, UniProt P15692 181-395); experiment: cell-based or functional assay
human VEGF165 = human VEGF165 (human, UniProt P15692-4 27-191); experiment: cell-based or functional assay

Kd [1]: 0.576 nM
koff [1]: 0.000454 s⁻¹
kon [1]: 788000 M⁻¹ s⁻¹
Molecule: G6.31 HC-S5E (Fab)

IC50 relative to G6.31, VEGF-induced HUVEC migration assay (human VEGF (hVEGF)): 1 relative to G6.31
B1: G6.31 WT (Fab, V domains shown)
VH: EVQLVESGGGLVQPGGSLRLSCAASGFTISDYWIHWVRQAPGKGLEWVAGITPAGGYTYYADSVKGRFTISADTSKNTAYLQMNSLRAEDTAVYYCARFVFFLPYAMDYWGQGTLVTVSS
VL: DIQMTQSPSSLSASVGDRVTITCRASQDVSTAVAWYQQKPGKAPKLLIYSASFLYSGVPSRFSGSGSGTDFTLTISSLQPEDFATYYCQQGYGNPFTFGQGTKVEIK

qAC50 (equivalent to IC50), pKDR receptor activation assay on KDR-CHO cells (human VEGF165): 0.932 nM
IC50 relative to G6.31, VEGF-induced HUVEC migration assay (human VEGF (hVEGF)): 0.5 relative to G6.31
B2: G6.31 AARR (N94A.F83A.N82aR.Y58R) (Fab, V domains shown)
VH: B1 VH with Y59R, N84R
VL: DIQMTQSPSSLSASVGDRVTITCRASQDVSTAVAWYQQKPGKAPKLLIYSASFLYSGVPSRFSGSGSGTDFTLTISSLQPEDAATYYCQQGYGAPFTFGQGTKVEIKR
